What was measured:
[1] = molecular target: T1, Phosphatidylinositol 4,5-bisphosphate 3-kinase catalytic subunit delta isoform (Homo sapiens, UniProt O00329); assay: Inhibition of PI3Kdelta in human Ramos cells assessed as reduction in anti-IgM-antibody-induced phosphorylation of AKT at Ser473 residue preincubated for 20 mins followed by anti-IgM antibody stimulation and measured after 30 mins by alphascreen assay; type: cell-based
T1 sequence (O00329 whole entry): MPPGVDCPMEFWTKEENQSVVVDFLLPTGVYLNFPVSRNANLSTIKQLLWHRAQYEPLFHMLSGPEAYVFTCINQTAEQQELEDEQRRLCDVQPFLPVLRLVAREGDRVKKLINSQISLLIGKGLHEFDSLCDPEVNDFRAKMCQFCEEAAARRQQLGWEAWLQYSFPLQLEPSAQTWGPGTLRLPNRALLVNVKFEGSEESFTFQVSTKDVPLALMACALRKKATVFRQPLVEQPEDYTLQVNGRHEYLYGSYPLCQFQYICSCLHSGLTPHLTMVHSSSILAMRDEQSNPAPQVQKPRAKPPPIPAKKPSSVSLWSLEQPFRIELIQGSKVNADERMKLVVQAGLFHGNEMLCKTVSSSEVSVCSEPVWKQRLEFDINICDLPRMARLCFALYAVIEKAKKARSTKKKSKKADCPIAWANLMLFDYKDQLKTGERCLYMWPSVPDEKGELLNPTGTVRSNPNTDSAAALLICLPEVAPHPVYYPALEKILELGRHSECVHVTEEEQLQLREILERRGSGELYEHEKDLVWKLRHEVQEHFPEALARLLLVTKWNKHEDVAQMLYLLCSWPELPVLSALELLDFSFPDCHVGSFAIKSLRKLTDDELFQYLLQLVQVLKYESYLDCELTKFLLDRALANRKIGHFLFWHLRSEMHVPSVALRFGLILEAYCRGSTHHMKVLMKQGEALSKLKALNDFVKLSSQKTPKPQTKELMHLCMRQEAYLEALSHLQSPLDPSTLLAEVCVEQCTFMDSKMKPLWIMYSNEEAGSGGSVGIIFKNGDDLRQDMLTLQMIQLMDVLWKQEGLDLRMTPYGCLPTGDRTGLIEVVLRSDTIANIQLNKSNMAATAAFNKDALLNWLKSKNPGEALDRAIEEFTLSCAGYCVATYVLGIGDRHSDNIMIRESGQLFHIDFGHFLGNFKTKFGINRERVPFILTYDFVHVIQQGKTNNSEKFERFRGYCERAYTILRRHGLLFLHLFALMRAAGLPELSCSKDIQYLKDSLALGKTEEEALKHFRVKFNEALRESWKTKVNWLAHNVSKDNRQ

[2] = molecular target: T1, Phosphatidylinositol 4,5-bisphosphate 3-kinase catalytic subunit delta isoform; assay: Inhibition of PI3Kdelta in human whole blood assessed as reduction in antihuman IgE antibody-stimulated CD63 expression preincubated for 30 mins followed by antihuman IgE antibody stimulation and measured after 20 mins by FACS analysis; type: tissue-based
[3] = molecular target: PI3-kinase p110-delta/p85-alpha (Homo sapiens, UniProt O00329); assay: Inhibition of N-terminal His6-tagged recombinant full length human p110delta/untagged recombinant full length human p85alpha expressed in baculovirus infected Sf21 insect cells using PIP2 as substrate preincubated for 15 mins followed by substrate addition and measured after 1 hr by HTRF assay
Homo sapiens [4] = species: Homo sapiens; assay: (§1) Selectivity ratio of IC50 for N-terminal His6-tagged recombinant full length human p110alpha/untagged recombinant full length human p85alpha expressed in baculovirus infected Sf21 insect cells to IC50 for N-terminal His6-tagged recombinant full length human p110delta/untagged recombinant full length human p85alpha expressed in baculovirus infected Sf21 insect cells
Homo sapiens [5] = species: Homo sapiens; assay: as §1, with “p110beta/untagged” for “p110alpha/untagged”, “to” for “to IC50 for”
Homo sapiens [6] = species: Homo sapiens; assay: Selectivity ratio of IC50 for N-terminal His6-tagged recombinant full length human PI3Kgamma expressed in baculovirus infected Sf21 cells to IC50 for N-terminal His6-tagged recombinant full length human p110delta/untagged recombinant full length human p85alpha expressed in baculovirus infected Sf21 insect cells

| IC50 [1] | IC50 [3] | SMILES | Ratio IC50 (Homo sapiens [4]) | also measured |
| --- | --- | --- | --- | --- |
| 20 nM | 2.8 nM | CC[C@H](Nc1ncnc2c1nc(-c1cnn(CC)c1C)n2C)C(=O)N1C[C@@H](C)O[C@@H](C)C1 | – | IC50 [2]: 130 nM |
| – | – | CCC(=O)N1CC[C@H](Nc2ncnc3c2nc(-c2cnn(CC)c2C)n3C)C1 | 57 | – |
| – | – | CCn1ncc(-c2nc3c(N4CCC(n5c(=O)[nH]c6ncccc65)CC4)ncnc3n2C)c1C | 70 | Ratio IC50 (Homo sapiens [5]): 90; Ratio IC50 (Homo sapiens [6]): 1000 |
| 106 nM | 5.2 nM | CC[C@H](Nc1ncnc2c1nc(-c1cnn(CC)c1C)n2C)C(=O)N1CCOCC1 | – | – |
| – | – | CCn1ncc(-c2nc3c(N[C@@H](C)C(=O)N4CCOCC4)ncnc3n2C)c1C | 17 | – |

— ChEMBL document CHEMBL4346703, “Structure Overhaul Affords a Potent Purine PI3Kδ Inhibitor with Improved Tolerability” (J Med Chem, 2019)
